Test results from ChEMBL document CHEMBL4396912 (Eur J Med Chem, 2019).

Sequences of proteins named here, by UniProt entry; tags and fusion partners are left off.
UniProt P14735, whole entry: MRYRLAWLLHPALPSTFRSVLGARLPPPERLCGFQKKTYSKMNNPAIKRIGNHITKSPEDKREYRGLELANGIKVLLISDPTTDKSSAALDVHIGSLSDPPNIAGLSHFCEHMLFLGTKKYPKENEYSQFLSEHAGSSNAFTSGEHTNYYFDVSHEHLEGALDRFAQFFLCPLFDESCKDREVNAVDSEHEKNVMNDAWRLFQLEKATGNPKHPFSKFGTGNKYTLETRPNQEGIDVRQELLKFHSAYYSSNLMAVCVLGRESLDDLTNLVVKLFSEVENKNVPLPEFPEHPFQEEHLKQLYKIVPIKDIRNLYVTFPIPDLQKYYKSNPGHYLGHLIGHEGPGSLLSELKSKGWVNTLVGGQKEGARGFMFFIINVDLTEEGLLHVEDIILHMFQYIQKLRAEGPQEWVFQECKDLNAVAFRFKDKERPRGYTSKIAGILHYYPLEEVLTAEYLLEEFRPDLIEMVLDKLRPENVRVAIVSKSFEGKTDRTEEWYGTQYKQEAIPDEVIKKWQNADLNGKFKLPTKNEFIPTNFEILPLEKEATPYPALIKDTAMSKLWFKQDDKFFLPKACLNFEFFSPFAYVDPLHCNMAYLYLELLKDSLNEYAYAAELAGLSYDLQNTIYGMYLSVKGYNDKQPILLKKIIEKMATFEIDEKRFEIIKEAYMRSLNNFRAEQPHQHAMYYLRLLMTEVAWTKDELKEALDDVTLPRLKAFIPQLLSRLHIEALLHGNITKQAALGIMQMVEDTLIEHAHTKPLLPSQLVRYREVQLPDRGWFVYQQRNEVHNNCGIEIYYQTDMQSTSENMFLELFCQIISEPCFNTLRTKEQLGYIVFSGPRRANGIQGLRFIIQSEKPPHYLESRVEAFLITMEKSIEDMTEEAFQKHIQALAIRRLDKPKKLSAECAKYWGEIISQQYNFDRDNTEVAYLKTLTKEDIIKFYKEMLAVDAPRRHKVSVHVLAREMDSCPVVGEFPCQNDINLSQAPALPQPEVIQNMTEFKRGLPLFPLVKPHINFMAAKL

Biological target: Insulin-degrading enzyme (Homo sapiens) (UniProt P14735)
Settings: HepG2, 30 uM

O=C(C[C@@H](Cc1ccc2ccccc2c1)n1cc(CNC(=O)c2ccc(F)cc2)nn1)NO
T: 54.4 °C
